{"sequences": {"note": "Chains of the proteins cited; added tags and fusions are not shown. Residues count along the entry.", "UniProt P21709, 26-976 limits assumed": "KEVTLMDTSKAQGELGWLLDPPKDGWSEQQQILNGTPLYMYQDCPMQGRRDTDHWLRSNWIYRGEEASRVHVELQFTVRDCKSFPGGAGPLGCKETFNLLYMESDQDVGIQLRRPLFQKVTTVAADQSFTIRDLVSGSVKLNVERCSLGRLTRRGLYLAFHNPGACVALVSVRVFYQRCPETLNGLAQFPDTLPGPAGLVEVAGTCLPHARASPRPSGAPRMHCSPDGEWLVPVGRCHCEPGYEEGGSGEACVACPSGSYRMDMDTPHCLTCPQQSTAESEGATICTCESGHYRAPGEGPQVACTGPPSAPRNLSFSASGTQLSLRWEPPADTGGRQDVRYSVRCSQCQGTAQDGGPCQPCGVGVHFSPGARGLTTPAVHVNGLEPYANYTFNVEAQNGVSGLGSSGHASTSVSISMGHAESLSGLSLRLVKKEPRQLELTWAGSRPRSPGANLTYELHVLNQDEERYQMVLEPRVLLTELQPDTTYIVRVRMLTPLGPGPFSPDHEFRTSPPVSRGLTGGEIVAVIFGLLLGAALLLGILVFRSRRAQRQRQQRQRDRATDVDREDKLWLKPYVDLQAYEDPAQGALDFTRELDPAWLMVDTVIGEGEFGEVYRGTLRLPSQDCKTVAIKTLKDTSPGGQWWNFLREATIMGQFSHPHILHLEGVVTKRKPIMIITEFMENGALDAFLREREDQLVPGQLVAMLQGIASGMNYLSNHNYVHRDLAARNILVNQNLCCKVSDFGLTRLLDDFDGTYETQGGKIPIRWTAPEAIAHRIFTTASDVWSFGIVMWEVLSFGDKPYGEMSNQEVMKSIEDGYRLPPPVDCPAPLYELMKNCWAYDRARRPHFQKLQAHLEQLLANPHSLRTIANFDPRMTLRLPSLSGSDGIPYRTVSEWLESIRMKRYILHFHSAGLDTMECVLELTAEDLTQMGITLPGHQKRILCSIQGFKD", "UniProt P36897, 34-503 limits assumed": "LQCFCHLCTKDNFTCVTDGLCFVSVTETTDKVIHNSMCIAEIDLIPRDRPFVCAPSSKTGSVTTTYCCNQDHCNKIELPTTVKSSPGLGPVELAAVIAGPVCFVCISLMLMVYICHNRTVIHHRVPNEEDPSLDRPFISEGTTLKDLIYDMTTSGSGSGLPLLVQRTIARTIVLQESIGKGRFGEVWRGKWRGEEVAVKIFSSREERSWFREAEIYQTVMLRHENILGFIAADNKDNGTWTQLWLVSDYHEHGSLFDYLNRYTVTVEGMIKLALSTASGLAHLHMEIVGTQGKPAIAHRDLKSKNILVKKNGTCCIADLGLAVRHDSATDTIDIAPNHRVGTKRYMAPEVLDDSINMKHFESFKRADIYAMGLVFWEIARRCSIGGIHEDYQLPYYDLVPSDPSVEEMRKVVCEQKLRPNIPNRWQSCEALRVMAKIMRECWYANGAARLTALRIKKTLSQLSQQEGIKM", "UniProt O14965, whole entry": "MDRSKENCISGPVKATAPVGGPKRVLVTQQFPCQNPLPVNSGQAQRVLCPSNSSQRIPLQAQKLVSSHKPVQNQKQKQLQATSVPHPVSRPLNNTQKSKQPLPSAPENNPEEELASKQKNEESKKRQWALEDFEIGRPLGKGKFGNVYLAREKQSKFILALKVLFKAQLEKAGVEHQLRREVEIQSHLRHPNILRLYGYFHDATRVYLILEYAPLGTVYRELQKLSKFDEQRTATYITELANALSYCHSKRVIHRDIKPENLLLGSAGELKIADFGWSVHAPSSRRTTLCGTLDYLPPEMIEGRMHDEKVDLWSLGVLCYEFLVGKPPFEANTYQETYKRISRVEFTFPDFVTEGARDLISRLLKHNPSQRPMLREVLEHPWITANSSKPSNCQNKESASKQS", "UniProt P00533, 25-1210 limits assumed": "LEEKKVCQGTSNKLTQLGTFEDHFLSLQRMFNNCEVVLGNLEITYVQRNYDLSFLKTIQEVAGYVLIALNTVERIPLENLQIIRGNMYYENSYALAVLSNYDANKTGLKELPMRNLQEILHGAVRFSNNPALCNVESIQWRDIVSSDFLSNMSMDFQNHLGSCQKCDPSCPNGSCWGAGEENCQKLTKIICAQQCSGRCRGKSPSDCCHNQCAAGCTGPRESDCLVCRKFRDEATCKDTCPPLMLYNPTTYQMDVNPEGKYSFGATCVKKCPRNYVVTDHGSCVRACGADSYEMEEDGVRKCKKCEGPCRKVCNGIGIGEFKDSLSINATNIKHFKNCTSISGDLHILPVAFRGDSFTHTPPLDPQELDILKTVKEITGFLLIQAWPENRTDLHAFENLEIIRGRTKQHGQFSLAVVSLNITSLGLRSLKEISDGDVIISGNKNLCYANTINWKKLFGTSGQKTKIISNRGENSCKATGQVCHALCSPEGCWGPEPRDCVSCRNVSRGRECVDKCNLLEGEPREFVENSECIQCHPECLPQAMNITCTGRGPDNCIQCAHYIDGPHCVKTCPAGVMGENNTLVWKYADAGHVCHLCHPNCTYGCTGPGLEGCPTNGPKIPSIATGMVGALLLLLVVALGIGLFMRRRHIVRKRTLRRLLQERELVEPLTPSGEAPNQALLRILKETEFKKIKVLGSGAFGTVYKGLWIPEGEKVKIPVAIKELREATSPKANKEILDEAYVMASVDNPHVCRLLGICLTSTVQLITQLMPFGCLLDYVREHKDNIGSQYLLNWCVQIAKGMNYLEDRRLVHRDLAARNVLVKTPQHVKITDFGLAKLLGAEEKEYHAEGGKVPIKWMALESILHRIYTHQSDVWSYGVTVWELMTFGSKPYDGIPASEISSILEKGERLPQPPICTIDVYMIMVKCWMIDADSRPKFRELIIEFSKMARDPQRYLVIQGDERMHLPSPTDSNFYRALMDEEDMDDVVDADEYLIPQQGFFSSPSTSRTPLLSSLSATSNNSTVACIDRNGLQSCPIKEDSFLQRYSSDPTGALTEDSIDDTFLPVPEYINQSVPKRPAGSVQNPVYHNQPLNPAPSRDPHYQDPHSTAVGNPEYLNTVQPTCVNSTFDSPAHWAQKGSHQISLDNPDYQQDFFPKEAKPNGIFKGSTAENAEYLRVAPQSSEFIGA", "UniProt P11362, 22-822 limits assumed": "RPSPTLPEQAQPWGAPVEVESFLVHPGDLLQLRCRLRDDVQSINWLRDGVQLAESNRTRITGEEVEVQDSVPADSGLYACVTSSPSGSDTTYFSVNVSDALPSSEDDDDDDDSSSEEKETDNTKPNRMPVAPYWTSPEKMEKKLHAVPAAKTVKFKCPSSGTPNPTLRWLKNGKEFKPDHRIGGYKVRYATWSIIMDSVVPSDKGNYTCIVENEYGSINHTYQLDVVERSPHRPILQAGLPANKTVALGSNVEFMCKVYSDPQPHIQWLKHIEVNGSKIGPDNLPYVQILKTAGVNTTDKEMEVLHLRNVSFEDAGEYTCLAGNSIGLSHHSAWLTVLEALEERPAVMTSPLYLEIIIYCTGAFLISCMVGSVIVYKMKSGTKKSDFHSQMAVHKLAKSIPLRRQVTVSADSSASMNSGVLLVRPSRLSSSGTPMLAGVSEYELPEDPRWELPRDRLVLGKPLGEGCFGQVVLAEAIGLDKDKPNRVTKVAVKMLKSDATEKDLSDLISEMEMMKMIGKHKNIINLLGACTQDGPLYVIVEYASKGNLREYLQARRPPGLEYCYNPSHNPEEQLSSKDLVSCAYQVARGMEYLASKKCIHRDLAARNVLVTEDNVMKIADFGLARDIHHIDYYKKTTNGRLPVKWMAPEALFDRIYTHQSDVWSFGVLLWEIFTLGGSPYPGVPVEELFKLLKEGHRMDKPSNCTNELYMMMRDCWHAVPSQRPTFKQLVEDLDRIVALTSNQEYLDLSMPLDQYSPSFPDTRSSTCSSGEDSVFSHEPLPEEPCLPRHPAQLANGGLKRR", "UniProt Q9Y6R4, whole entry": "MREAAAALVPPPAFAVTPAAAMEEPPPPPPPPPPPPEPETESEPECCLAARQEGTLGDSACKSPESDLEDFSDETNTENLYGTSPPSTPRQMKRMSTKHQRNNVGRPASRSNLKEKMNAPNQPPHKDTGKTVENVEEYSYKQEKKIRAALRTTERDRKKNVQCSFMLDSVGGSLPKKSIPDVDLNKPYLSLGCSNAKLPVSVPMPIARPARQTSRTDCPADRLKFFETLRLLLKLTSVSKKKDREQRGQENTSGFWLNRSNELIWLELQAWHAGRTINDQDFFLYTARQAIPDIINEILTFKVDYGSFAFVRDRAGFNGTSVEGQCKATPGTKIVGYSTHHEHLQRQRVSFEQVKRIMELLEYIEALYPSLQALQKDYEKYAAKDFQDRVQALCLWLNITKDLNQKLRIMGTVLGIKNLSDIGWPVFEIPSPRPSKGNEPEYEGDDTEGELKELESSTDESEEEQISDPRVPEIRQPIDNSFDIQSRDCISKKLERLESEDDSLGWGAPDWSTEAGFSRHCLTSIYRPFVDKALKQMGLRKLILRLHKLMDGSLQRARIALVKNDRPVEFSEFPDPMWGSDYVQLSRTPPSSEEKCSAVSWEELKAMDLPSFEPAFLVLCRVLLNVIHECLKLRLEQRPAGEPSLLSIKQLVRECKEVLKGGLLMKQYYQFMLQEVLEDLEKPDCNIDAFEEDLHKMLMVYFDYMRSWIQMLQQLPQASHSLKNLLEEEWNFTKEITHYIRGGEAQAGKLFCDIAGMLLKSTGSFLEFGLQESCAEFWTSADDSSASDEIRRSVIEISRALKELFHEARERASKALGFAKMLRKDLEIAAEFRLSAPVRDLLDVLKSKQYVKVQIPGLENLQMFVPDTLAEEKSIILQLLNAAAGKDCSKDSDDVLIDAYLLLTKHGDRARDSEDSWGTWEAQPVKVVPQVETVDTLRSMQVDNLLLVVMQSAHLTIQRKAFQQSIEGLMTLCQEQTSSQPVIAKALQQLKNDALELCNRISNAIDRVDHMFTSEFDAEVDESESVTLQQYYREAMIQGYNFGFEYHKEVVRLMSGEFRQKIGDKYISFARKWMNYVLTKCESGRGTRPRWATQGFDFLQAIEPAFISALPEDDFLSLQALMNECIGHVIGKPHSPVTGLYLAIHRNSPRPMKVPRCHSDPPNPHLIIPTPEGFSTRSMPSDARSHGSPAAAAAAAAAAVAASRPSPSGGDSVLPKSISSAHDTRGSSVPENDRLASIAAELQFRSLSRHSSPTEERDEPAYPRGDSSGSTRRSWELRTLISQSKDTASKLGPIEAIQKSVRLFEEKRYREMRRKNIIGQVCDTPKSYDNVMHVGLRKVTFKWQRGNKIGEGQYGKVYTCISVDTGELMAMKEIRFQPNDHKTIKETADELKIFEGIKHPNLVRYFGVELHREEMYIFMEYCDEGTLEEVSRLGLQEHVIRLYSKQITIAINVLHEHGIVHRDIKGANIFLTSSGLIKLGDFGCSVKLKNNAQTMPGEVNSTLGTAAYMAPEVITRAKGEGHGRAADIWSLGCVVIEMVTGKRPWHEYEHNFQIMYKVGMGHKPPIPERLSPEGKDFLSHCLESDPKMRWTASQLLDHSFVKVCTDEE", "UniProt P21802, 22-821 limits assumed": "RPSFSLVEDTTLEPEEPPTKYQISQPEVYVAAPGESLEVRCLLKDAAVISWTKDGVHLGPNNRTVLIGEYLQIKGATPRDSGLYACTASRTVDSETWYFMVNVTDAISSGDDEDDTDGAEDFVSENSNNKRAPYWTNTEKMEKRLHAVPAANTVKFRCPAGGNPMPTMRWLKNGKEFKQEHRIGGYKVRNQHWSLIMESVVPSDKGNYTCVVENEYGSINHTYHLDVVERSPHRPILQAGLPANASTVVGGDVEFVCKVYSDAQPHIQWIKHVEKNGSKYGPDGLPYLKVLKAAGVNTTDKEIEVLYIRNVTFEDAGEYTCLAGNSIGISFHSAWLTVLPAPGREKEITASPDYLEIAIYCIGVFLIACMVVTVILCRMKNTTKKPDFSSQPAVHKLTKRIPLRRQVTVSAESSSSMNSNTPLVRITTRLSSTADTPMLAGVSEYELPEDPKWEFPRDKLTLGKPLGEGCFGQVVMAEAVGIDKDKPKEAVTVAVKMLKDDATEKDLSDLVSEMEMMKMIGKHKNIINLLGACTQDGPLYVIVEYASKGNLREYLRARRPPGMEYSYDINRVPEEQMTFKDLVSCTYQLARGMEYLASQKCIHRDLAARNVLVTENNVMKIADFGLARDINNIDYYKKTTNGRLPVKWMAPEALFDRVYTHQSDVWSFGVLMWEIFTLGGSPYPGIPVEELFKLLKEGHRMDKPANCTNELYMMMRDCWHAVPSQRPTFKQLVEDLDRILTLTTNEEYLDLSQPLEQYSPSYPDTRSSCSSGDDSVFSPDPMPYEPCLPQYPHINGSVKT"}, "source": "patent US20260384438A1", "about": "“PYRROLOPYRIMIDINE CARBOXAMIDES” (published 2026)", "key": {"CYP2C19": {"molecular_target": "CYP2C19 (Homo sapiens, UniProt P33261)", "test": "CYP time dependent inhibition, CYP2C19", "conditions": "10 μM, 30 min preincubation, HLM"}, "EPHA1": {"molecular_target": "EPHA1 (Homo sapiens, UniProt P21709)", "test": "NanoBRET kinase panel (CELLinib)", "conditions": "whole-cell NanoBRET"}, "EPHA3": {"molecular_target": "EPHA3 (Homo sapiens, UniProt P29320)", "test": "NanoBRET kinase panel (CELLinib)", "conditions": "whole-cell NanoBRET"}, "LCK": {"molecular_target": "LCK (Homo sapiens, UniProt P06239)", "test": "NanoBRET kinase panel (CELLinib)", "conditions": "whole-cell NanoBRET"}, "EPHA5": {"molecular_target": "EPHA5 (Homo sapiens, UniProt P54756)", "test": "NanoBRET kinase panel (CELLinib)", "conditions": "whole-cell NanoBRET"}, "EPHB2": {"molecular_target": "EPHB2 (Homo sapiens, UniProt P29323)", "test": "NanoBRET kinase panel (CELLinib)", "conditions": "whole-cell NanoBRET"}, "KDR": {"molecular_target": "KDR (Homo sapiens, UniProt P35968)", "test": "NanoBRET kinase panel (CELLinib)", "conditions": "whole-cell NanoBRET"}, "PDPK1": {"molecular_target": "PDPK1 (Homo sapiens, UniProt O15530)", "test": "NanoBRET kinase panel (CELLinib)", "conditions": "whole-cell NanoBRET"}, "TGFBR1": {"molecular_target": "TGFBR1 (Homo sapiens, UniProt P36897)", "test": "NanoBRET kinase panel (CELLinib)", "conditions": "whole-cell NanoBRET"}, "SRC": {"molecular_target": "SRC (Homo sapiens, UniProt P12931)", "test": "NanoBRET kinase panel (CELLinib)", "conditions": "whole-cell NanoBRET"}, "AurKA": {"molecular_target": "AurKA (Homo sapiens, UniProt O14965)", "test": "NanoBRET kinase panel (CELLinib)", "conditions": "whole-cell NanoBRET"}, "KIT": {"molecular_target": "KIT (Homo sapiens, UniProt P10721)", "test": "NanoBRET kinase panel (CELLinib)", "conditions": "whole-cell NanoBRET"}, "EPHA4": {"molecular_target": "EPHA4 (Homo sapiens, UniProt P54764)", "test": "NanoBRET kinase panel (CELLinib)", "conditions": "whole-cell NanoBRET"}, "GSK3B": {"molecular_target": "GSK3B (Homo sapiens, UniProt P49841)", "test": "NanoBRET kinase panel (CELLinib)", "conditions": "whole-cell NanoBRET"}, "ACVR1B": {"molecular_target": "ACVR1B (Homo sapiens, UniProt P36896)", "test": "NanoBRET kinase panel (CELLinib)", "conditions": "whole-cell NanoBRET"}, "EPHB3": {"molecular_target": "EPHB3 (Homo sapiens, UniProt P54753)", "test": "NanoBRET kinase panel (CELLinib)", "conditions": "whole-cell NanoBRET"}, "EPHA8": {"molecular_target": "EPHA8 (Homo sapiens, UniProt P29322)", "test": "NanoBRET kinase panel (CELLinib)", "conditions": "whole-cell NanoBRET"}, "EPHA2": {"molecular_target": "EPHA2 (Homo sapiens, UniProt P29317)", "test": "NanoBRET kinase panel (CELLinib)", "conditions": "whole-cell NanoBRET"}, "EGFR": {"molecular_target": "EGFR (Homo sapiens, UniProt P00533)", "test": "NanoBRET kinase panel (CELLinib)", "conditions": "whole-cell NanoBRET"}, "FGFR1": {"molecular_target": "FGFR1 (Homo sapiens, UniProt P11362)", "test": "NanoBRET kinase panel (CELLinib)", "conditions": "whole-cell NanoBRET"}, "MAP3K4": {"molecular_target": "MAP3K4 (Homo sapiens, UniProt Q9Y6R4)", "test": "NanoBRET kinase panel (CELLinib)", "conditions": "whole-cell NanoBRET"}, "FGFR2": {"molecular_target": "FGFR2 (Homo sapiens, UniProt P21802)", "test": "NanoBRET kinase panel (CELLinib)", "conditions": "whole-cell NanoBRET"}, "PIK3CA": {"molecular_target": "PIK3CA (Homo sapiens, UniProt P42336)", "test": "NanoBRET kinase panel (CELLinib)", "conditions": "whole-cell NanoBRET"}, "EPHB4": {"molecular_target": "EPHB4 (Homo sapiens, UniProt P54760)", "test": "NanoBRET kinase panel (CELLinib)", "conditions": "whole-cell NanoBRET"}, "EPHB1": {"molecular_target": "EPHB1 (Homo sapiens, UniProt P54762)", "test": "NanoBRET kinase panel (CELLinib)", "conditions": "whole-cell NanoBRET"}, "[1]": {"tested_on": "PKMYT1 knock out (KO) SKOV3 cells", "test": "CellTiter-Glo growth inhibition, PKMYT1 KO SKOV3 cells", "conditions": "7-day CTG"}, "[2]": {"tested_on": "human bone marrow derived CD34+ hematopoietic stem and progenitor cells", "test": "In vitro hematopoietic stem and progenitor cell assay (bone marrow toxicity)", "conditions": "read-out: MEAN IC50 VALUE IN PRIMARY HSPC (± STANDARD DEVIATION); CD34+ HSPC induced to erythroid lineage, 5 days"}, "SKOV3 PKMYT1 KO (H2)": {"tested_on": "SKOV3 PKMYT1 KO (H2)", "test": "CellTiter-Glo growth inhibition, SKOV3 PKMYT1 KO (H2)"}, "enriched kinases": {"tested_on": "enriched kinases", "test": "Kinase Affinity Tool (KAT) chemical proteomics assay, cell lysate mix (K562, MV4-11, SN-N-BE2, COLO-205)"}, "CYP1A2": {"molecular_target": "CYP1A2 (Homo sapiens, UniProt P05177)", "test": "CYP inhibition, CYP1A2", "conditions": "read-out: CYP1A2 inhibition IC50; HLM, phenacetin 30 μM"}, "THP-1 cells": {"tested_on": "THP-1 cells", "test": "THP-1 assay (cytotoxicity, resazurin)", "conditions": "read-out: THP-1 cytotoxicity IC50, 48 h"}, "[3]": {"test": "In vivo tolerability, monotherapy, female SCID mice", "conditions": "300 mg/kg BID oral"}, "[4]": {"test": "In vivo tolerability, combination with irinotecan hydrochloride, female athymic nude mice"}, "[5]": {"molecular_target": "Insulin receptor kinase (IRK) (Homo sapiens, UniProt P06213)", "test": "Secondary pharmacology, enzyme"}, "[6]": {"molecular_target": "Prostaglandin-endoperoxide synthase 2 (COX2) (Homo sapiens, UniProt P35354)", "test": "Secondary pharmacology, enzyme"}, "[7]": {"molecular_target": "Fibroblast growth factor receptor 1 kinase (FGFR1 kinase) (Homo sapiens, UniProt P11362)", "test": "Secondary pharmacology, enzyme"}, "Acetylcholinesterase": {"molecular_target": "Acetylcholinesterase (Homo sapiens, UniProt P22303)", "test": "Secondary pharmacology, enzyme"}}, "note": "Values joined by “and” are separate entries in the source; they are usually repeats but may differ in a detail not shown here. Equal entries are not always repeated. Where two headings read alike, the source gives them in different places.", "data": [{"smiles": "Cc1nc(C(F)(F)F)c2c(C(N)=O)c(N)n(-c3c(C)ccc(O)c3C)c2n1", "note": "(single isomer, unassigned)", "values": [{"measurement": "% time dependent inhibition (TDI), CYP2C19", "setting": "CYP2C19", "value": "less than 20%"}, {"measurement": "IC50", "setting": "EPHA1", "value": 3.17, "unit": "µM"}, {"measurement": "IC50", "setting": "EPHA3", "value": 8.1, "unit": "µM"}, {"measurement": "IC50", "setting": "LCK", "value": "> 50", "unit": "µM"}, {"measurement": "IC50", "setting": "EPHA5", "value": 15, "unit": "µM"}, {"measurement": "IC50", "setting": "EPHB2", "value": 10.9, "unit": "µM"}, {"measurement": "IC50", "setting": "KDR", "value": "> 50", "unit": "µM"}, {"measurement": "IC50", "setting": "PDPK1", "value": "> 50", "unit": "µM"}, {"measurement": "IC50", "setting": "TGFBR1", "value": "> 50", "unit": "µM"}, {"measurement": "IC50", "setting": "SRC", "value": "> 50", "unit": "µM"}, {"measurement": "IC50", "setting": "AurKA", "value": "> 50", "unit": "µM"}, {"measurement": "IC50", "setting": "KIT", "value": 4.29, "unit": "µM"}, {"measurement": "IC50", "setting": "EPHA4", "value": 16.1, "unit": "µM"}, {"measurement": "IC50", "setting": "GSK3B", "value": 21.6, "unit": "µM"}, {"measurement": "IC50", "setting": "ACVR1B", "value": 27.1, "unit": "µM"}, {"measurement": "IC50", "setting": "EPHB3", "value": 1.79, "unit": "µM"}, {"measurement": "IC50", "setting": "EPHA8", "value": 33.4, "unit": "µM"}, {"measurement": "IC50", "setting": "EPHA2", "value": 6.83, "unit": "µM"}, {"measurement": "IC50", "setting": "EGFR", "value": "> 50", "unit": "µM"}, {"measurement": "IC50", "setting": "FGFR1", "value": "> 50", "unit": "µM"}, {"measurement": "IC50", "setting": "MAP3K4", "value": "> 50", "unit": "µM"}, {"measurement": "IC50", "setting": "FGFR2", "value": "> 50", "unit": "µM"}, {"measurement": "IC50", "setting": "PIK3CA", "value": 48.5, "unit": "µM"}, {"measurement": "IC50", "setting": "EPHB4", "value": 13.4, "unit": "µM"}, {"measurement": "IC50", "setting": "EPHB1", "value": 6.32, "unit": "µM"}, {"measurement": "sensitivity of PKMYT1 KO SKOV3 cells", "setting": "[1]", "value": "resistant"}, {"measurement": "GI50", "setting": "[1]; PKMYT1 deletion", "value": "> 20", "unit": "µM"}, {"measurement": "IC50", "setting": "[2]", "value": 30.2, "unit": "µM"}, {"measurement": "GI50", "setting": "SKOV3 PKMYT1 KO (H2); read-out: GI50 VALUES, individual values, 7 days CTG", "value": "26.4 µM and 23.8 µM and 16.9 µM"}, {"measurement": "GI50", "setting": "SKOV3 PKMYT1 KO (H2); read-out: MEAN GI50 (N = 3), mean of N = 3, 7 days CTG", "value": 22.4, "unit": "µM"}, {"measurement": "Kinase selectivity (RB50 values)", "setting": "enriched kinases", "value": "highly selective for PKMYT1"}, {"measurement": "IC50", "setting": "CYP1A2", "value": "> 30", "unit": "µM"}, {"measurement": "IC50", "setting": "THP-1 cells", "value": 34, "unit": "µM"}, {"measurement": "body weight loss, paw or tail swelling, adverse events", "setting": "[3]; 28 days, SCID mice", "value": "No significant loss of body weight, paw or tail swelling, or other noticeable adverse events"}, {"measurement": "free Cmax", "setting": "[3]; female SCID mice", "value": "approximately 21 μM"}, {"measurement": "body weight loss, paw or tail swelling, adverse events", "setting": "[4]; 100 mg/kg BID + irinotecan hydrochloride 50 mg/kg weekly, 28 days", "value": "No significant loss of body weight, paw or tail swelling, or other noticeable adverse events"}, {"measurement": "free Cmax", "setting": "[4]; 100 mg/kg BID oral, with irinotecan hydrochloride, athymic nude mice", "value": "approximately 5.7 μM"}, {"measurement": "Pharmacological mode of action", "setting": "[5]", "value": "Inactive"}, {"measurement": "IC50", "setting": "[5]; read-out: Enzyme IC50", "value": "> 100", "unit": "µM"}, {"measurement": "Pharmacological mode of action", "setting": "[6]", "value": "Inactive"}, {"measurement": "IC50", "setting": "[6]; read-out: Enzyme IC50", "value": "> 100", "unit": "µM"}, {"measurement": "Pharmacological mode of action", "setting": "[7]", "value": "Inhibitor"}, {"measurement": "IC50", "setting": "[7]; read-out: Enzyme IC50", "value": 40, "unit": "µM"}, {"measurement": "Pharmacological mode of action", "setting": "Acetylcholinesterase", "value": "Inactive"}, {"measurement": "IC50", "setting": "Acetylcholinesterase; read-out: Enzyme IC50", "value": "> 100", "unit": "µM"}]}]}
